We go through one molecule from patent US20050130235A1 (CALIFORNIA INSTITUTE OF TECHNOLOGY, published 2005).

Amino acid sequences for entries named in this document (tags omitted).
UniProt P02470, whole entry, chain 1 of 2: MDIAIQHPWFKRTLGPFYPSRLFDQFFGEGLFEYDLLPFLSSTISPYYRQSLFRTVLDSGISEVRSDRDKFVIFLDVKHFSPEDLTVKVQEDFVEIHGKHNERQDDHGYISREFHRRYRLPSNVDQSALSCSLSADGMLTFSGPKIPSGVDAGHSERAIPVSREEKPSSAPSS
Bovine lens α-crystallin (a mixture of A and B chains), UniProt P02510, whole entry, chain 2 of 2: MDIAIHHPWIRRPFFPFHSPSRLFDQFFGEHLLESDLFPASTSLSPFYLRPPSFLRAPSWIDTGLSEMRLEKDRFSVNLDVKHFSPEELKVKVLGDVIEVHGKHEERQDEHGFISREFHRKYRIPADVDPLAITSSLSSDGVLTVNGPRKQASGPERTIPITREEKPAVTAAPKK

This experiment deals with Bovine lens α-crystallin (a mixture of A and B chains) (bovine, UniProt P02470 1-173; P02510 1-175, O-GlcNAc at Ser162, stoichiometry ~10%). Briefly: lectin blot, WGA-HRP 1:8000. As for the experimental part:
WGA western blotting was performed essentially as described.(25, 27) Briefly, α-crystallin and controls were resolved by 15% SDS-PAGE and electrophoretically transferred to nitrocellulose. Blots were blocked for 1 h in 3% periodate-treated BSA in PBS, rinsed 2×15 min with PBS-0.05% tween-20 (PBST), and probed for 2 h with WGA-HRP (1:8000 in PBST). Subsequently, blots were rinsed with PBST, washed 3×10 min, then 3×20 min before chemiluminescence detection on film (FIG. 12).

B1: wheat-germ agglutinin (WGA) lectin (other, UniProt P10968 27-197, looked up)
chain: QRCGEQGSNMECPNNLCCSQYGYCGMGGDYCGKGCQNGACWTSKRCGSQAGGATCTNNQCCSQYGYCGFGAEYCGAGCQGGPCRADIKCGSQAGGKLCPNNLCCSQWGFCGLGSEFCGGGCQSGACSTDKPCGKDAGGRVCTNNYCCSKWGSCGIGPGYCGAGCQSGGCDG
modifications: conjugated to HRP (WGA-HRP)
notes: Used as an HRP conjugate for blotting; also called WGA-HRP
As to B1, the binding result is reported as “no binding”.
